# Source: the supplement of paper PMC9334596
# What follows is the remainder of the data, with few or none of the highest values.
# Test system: mPer2Luc MEF
# Experiment: PER2::LUC luminescence relative to vehicle control (fold of vehicle); higher = higher PER2::LUC reporter signal
# Conditions: 10 µM
# Summary of the method: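 In 384-well plates, ~3000 mPer2Luc reporter mouse embryonic fibroblasts per well were cultured in DMEM with 10% FBS at 37 °C and 5% CO2 for 48 h before compounds from commercial libraries were added at 10 μM. ONE-Glo luciferase readings were taken 24 h and 30 h after treatment. Each value is PER2::LUC luminescence given as fold of vehicle control.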
smiles,measurement,setting,value
N/C(=N/CCc1ccc(I)cc1)SCCCc1cnc[nH]1,PER2::LUC luminescence,time after treatment 24 h,0.772
same,PER2::LUC luminescence,time after treatment 30 h,0.849
